Measured values published in paper PMC10660610 (Scientific Reports, 2023).

The chains behind the UniProt entries cited, without tags or fusion partners.
UniProt P33535, whole entry: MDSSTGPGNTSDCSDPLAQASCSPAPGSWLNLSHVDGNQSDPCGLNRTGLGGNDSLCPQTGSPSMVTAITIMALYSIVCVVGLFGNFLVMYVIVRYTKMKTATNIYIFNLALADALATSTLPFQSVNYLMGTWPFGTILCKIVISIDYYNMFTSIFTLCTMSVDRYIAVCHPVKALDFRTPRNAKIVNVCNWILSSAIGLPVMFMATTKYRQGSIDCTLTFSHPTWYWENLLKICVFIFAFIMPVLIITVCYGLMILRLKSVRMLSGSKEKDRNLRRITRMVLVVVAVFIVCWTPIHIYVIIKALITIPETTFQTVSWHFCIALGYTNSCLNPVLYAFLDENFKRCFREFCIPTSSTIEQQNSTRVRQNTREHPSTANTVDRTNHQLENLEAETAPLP

Molecular target: T1, MOR (mu-opioid receptor) (Rattus norvegicus, UniProt P33535)
T1 construct: gene Oprm1; native full-length receptor in rat brain membrane homogenate
Assay type: binding
Details: read-out: MOR^a / Ki ± S.E.M.

## C[C@@H](NC(=O)[C@@H](N)Cc1ccc(O)cc1)C(=O)NCC(=O)N(C)[C@@H](Cc1ccccc1)C(=O)NCCO [DAMGO]
  Ki: 2.7 ± 1.1 nM
